# Results taken from patent US5567683A, “Substituted lactose and lactosamine derivatives as cell adhesion inhibitors” (Glycomed Incorporated, priority 1994, dated 1996).
# Test system: hepatocytes
# Conditions: result in words only
substance,measurement,value
"N,6N.6N' Tris (20) Lys-Tyr-Lys [trivalent derivative]",inhibiting the binding of lactose to hepatocytes,especially effective
